In PubChem BioAssay AID485272 (The Scripps Research Institute Molecular Screening Center, 2010):
The list shows a part of the results, in another mix than the full data. Active and inactive are the calls of the source.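 How the source made its calls: active means percent inhibition above a cutoff equal to the mean of all tested compounds plus 3 SD (cut at about 15% in these data); inactive means the rest.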

Chains of the proteins cited; added tags and fusions are not shown.
UniProt Q9UM07, whole entry: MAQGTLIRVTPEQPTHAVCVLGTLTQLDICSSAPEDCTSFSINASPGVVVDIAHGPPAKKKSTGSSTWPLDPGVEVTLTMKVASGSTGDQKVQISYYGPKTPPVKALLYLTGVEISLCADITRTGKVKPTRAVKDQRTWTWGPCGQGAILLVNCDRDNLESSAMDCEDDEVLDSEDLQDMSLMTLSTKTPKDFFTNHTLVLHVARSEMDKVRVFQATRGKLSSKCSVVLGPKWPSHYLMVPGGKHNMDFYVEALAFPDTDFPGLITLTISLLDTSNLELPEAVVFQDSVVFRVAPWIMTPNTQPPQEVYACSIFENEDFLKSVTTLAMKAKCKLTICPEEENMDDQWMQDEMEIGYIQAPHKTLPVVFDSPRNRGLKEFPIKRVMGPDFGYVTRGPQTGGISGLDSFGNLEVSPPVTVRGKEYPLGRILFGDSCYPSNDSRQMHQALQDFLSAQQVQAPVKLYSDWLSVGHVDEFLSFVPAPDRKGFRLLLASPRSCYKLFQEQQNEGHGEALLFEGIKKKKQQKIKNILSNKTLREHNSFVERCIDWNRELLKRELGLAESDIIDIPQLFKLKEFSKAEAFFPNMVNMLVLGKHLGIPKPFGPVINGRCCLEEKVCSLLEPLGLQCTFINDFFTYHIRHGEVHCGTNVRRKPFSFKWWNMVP

Each compound was assayed against Protein-arginine deiminase type-4 (Homo sapiens) (UniProt Q9UM07) (assay: human PAD4 inhibitors, primary screen, biochemical, fluorescence polarization, 1536-well format (AID 485272;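 further: 0% = PAD4 with RCA probe and DMSO and 100% = probe without PAD4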)). Details: recombinant PAD4, RCA probe fluorescence polarization; at 6.36 µM; active compounds read high.

Compound | inhibition
CCCOc1ccc(NP(C)(=O)Oc2ccc(Cl)cc2)cc1 (stereo unspecified) | inactive: -2.78%
